Results: PubChem BioAssay (EPA / NIEHS)
These results got no clear call from the source, so the numbers are uncertain. The calls were made as follows: active = hit-call score of the fitted dose curve at least 0.9, where 1 is the maximum; inconclusive = response in the unintended direction; inactive = score below 0.9.

Sequences of proteins named here, by UniProt entry; tags and fusion partners are left off. A change or cut given only in a name is not applied to a line headed by its entry.
UniProt P03372, whole entry, looked up: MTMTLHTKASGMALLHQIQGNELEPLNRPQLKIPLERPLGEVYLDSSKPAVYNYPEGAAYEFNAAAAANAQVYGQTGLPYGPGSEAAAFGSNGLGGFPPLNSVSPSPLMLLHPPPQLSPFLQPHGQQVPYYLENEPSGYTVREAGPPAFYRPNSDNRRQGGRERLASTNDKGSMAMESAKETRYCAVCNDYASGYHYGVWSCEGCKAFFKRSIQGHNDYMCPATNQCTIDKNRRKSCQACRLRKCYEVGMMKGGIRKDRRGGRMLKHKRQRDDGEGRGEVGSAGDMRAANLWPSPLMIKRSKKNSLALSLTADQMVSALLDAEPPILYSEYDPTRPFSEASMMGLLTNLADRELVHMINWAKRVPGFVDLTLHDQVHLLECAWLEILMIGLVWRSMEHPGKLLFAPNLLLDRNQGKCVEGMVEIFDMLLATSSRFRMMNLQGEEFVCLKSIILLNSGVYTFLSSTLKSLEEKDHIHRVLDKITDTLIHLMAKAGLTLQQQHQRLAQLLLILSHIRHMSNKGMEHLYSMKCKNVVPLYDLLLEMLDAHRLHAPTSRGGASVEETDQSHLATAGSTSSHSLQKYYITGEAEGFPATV
UniProt P04150: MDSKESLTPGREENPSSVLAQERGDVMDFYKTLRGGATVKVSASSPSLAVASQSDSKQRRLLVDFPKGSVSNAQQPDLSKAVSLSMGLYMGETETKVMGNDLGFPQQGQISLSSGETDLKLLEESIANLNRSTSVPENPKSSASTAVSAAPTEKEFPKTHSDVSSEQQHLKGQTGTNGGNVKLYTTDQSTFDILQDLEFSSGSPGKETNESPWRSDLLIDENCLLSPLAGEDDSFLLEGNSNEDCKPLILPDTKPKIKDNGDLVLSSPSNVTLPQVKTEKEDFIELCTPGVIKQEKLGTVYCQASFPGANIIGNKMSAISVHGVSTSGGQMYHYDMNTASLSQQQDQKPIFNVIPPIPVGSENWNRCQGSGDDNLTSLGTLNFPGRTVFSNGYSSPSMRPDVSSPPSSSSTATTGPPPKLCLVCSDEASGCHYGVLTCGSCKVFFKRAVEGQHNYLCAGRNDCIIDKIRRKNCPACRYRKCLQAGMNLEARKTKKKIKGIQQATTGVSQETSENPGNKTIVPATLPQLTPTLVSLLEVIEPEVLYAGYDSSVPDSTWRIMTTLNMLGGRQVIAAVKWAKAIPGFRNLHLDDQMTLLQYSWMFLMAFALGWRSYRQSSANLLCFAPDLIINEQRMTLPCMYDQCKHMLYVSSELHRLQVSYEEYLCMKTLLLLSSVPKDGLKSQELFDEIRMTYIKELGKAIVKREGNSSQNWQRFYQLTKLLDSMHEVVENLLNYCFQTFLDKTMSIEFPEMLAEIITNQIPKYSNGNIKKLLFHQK
UniProt P60484: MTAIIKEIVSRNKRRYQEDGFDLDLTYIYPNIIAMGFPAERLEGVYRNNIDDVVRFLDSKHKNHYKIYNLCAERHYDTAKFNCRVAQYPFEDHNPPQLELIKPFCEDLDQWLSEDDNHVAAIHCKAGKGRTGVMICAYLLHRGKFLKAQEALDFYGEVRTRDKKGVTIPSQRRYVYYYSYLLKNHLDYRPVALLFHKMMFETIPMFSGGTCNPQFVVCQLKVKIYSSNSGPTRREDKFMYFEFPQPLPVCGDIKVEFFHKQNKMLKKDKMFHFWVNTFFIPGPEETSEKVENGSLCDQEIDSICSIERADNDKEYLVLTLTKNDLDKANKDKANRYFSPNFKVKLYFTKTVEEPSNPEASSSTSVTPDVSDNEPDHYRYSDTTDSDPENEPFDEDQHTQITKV
UniProt P41235: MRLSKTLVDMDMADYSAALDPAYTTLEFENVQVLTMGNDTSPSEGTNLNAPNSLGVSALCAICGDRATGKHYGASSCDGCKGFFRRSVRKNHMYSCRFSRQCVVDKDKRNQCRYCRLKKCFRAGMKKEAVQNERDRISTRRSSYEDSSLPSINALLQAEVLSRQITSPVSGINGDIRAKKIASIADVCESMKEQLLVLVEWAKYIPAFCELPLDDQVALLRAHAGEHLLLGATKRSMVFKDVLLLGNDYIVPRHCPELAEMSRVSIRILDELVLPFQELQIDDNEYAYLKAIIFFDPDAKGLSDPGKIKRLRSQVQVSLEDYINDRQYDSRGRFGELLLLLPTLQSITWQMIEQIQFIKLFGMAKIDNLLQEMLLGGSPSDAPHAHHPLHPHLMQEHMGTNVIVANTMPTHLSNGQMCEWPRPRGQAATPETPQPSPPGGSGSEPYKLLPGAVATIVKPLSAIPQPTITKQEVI
UniProt Q07869: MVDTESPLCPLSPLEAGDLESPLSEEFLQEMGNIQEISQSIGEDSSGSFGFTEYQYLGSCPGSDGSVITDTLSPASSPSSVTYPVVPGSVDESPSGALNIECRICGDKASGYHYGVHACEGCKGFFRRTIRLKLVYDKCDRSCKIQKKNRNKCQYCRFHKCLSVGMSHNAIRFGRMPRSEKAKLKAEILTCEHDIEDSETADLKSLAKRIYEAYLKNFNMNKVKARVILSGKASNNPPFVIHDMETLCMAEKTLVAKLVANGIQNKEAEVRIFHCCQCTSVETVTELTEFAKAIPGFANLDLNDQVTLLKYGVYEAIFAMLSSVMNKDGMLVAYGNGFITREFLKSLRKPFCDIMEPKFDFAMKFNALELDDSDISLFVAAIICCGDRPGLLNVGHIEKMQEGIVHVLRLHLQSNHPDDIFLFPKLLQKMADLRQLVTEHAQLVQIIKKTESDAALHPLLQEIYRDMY
UniProt Q03181: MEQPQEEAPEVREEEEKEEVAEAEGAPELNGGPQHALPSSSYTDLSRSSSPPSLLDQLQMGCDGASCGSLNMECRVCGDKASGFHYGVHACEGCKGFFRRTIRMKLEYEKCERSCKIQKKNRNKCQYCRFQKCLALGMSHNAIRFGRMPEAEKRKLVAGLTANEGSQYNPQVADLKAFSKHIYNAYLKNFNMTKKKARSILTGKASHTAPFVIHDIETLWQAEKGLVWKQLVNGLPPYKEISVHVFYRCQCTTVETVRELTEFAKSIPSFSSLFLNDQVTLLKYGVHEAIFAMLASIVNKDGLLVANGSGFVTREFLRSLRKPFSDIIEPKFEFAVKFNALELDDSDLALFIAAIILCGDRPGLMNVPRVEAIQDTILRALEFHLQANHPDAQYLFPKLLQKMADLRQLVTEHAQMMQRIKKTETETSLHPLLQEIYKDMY
UniProt O75469: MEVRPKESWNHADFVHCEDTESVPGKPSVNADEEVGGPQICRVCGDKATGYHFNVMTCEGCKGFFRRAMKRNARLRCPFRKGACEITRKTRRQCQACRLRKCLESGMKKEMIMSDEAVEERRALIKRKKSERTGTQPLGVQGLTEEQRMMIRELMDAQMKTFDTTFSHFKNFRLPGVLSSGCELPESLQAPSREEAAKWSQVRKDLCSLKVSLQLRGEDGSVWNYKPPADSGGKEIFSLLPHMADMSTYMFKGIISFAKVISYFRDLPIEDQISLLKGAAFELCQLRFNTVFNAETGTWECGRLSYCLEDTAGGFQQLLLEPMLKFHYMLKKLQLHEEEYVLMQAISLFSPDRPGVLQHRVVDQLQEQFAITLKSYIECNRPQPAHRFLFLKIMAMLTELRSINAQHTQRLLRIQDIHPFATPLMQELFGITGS
UniProt P13631, whole entry, looked up: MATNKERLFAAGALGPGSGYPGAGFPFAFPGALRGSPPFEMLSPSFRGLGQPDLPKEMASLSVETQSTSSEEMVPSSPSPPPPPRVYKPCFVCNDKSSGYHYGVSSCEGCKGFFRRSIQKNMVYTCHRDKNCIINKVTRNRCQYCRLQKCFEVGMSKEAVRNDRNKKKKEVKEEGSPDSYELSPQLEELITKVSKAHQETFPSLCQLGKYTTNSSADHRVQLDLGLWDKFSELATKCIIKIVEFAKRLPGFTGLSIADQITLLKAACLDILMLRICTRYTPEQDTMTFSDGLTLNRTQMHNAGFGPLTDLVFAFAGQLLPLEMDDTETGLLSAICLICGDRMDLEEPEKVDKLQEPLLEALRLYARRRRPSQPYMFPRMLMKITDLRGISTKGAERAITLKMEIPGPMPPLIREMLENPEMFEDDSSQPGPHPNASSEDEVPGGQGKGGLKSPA
UniProt Q92753: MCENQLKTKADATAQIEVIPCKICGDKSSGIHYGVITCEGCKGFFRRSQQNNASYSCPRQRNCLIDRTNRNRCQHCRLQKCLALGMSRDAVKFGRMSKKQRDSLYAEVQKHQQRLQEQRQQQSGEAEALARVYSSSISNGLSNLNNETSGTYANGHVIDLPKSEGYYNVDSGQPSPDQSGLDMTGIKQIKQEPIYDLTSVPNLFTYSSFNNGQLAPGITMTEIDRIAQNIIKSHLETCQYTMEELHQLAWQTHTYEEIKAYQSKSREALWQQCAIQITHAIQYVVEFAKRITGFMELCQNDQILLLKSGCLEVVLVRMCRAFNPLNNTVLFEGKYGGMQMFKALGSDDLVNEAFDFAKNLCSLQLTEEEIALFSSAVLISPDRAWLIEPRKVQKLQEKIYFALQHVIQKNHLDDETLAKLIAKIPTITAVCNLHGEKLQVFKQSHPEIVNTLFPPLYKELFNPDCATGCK
UniProt P51449: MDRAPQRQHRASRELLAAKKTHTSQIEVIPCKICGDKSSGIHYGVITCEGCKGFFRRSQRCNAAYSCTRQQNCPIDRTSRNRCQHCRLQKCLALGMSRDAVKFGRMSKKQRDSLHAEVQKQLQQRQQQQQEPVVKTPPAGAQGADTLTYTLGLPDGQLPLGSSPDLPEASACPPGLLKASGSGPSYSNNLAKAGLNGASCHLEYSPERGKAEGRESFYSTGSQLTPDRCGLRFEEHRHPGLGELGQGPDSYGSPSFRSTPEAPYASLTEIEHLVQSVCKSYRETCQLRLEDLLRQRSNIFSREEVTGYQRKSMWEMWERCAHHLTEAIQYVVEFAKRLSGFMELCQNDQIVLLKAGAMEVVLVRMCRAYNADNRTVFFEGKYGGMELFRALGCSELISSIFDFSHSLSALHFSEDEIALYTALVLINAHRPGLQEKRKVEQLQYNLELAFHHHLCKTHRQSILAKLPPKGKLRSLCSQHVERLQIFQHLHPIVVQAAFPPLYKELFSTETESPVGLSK
UniProt P10827: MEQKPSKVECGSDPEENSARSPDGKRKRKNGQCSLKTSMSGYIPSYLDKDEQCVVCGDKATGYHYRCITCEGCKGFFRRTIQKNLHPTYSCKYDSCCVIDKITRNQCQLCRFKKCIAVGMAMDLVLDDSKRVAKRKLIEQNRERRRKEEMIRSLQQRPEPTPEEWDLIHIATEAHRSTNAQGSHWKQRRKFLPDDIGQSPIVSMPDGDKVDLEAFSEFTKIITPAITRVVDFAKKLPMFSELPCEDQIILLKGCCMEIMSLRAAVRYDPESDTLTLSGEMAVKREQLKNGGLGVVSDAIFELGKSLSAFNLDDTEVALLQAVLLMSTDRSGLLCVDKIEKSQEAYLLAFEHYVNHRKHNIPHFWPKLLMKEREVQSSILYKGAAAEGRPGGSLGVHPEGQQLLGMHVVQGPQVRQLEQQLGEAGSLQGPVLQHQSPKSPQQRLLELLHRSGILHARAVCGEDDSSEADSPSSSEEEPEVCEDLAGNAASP
UniProt Q01717: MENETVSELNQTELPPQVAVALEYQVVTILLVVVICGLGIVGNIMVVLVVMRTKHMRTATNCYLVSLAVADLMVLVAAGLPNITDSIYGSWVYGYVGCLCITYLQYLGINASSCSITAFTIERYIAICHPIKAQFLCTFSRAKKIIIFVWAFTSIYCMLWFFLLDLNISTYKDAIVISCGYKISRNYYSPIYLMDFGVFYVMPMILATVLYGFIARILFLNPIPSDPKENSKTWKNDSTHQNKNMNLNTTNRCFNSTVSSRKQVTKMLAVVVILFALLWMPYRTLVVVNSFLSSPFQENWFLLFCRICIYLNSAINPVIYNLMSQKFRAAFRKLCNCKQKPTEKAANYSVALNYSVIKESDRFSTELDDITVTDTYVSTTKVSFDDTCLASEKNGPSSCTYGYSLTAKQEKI
UniProt P19793: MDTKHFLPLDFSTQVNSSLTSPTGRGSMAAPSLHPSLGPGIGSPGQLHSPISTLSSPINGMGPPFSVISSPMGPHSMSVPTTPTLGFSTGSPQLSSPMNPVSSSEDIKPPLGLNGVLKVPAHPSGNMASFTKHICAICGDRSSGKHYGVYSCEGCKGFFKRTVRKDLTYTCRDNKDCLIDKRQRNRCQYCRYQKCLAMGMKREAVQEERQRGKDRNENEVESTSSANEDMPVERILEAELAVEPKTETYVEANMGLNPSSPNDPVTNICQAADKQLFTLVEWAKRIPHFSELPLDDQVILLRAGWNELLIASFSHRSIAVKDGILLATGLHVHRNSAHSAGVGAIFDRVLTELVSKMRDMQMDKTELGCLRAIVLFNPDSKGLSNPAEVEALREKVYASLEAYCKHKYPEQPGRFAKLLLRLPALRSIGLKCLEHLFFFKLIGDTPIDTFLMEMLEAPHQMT

Experiments:
[1] = ACEA_ER_80hr: ACEA Biosciences xCELLigence Real-Time Cell Analysis on Estrogen Receptor Agonism for Proliferation (AID 2282667); settings: T47D proliferation, impedance (xCELLigence), 80 h
Outline: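 T-47D cells monitored by electrical impedance (xCELLigence) with compound present throughout; 80 h timepoint, positive-direction fitting versus DMSO. Eight-point 1:4 dilutions from 100 uM final, duplicate plates.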

[2] = biological target: Estrogen receptor (Homo sapiens) (UniProt P03372); assay: ATG_ERa_TRANS: Attagene TRANS-FACTORIAL HepG2 Assay for human Estrogen Receptor alpha (ERa) (AID 2282970); settings: HepG2 Attagene TRANS ERa GAL4 reporter, mRNA
Outline: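 Gal4-fusion ERa transactivation, measured as reporter transcript level in transiently transfected HepG2 cells. Exposure 24 h; RT-PCR plus capillary electrophoresis with fluorescence detection.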

[3] = ATG_GAL4_TRANS: Attagene TRANS-FACTORIAL HepG2 Assay for GAL4 (Internal Marker) (AID 2282976); settings: HepG2 Attagene TRANS GAL4 internal marker reporter
Outline: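 Background-control readout: GAL4-UAS reporter transcript in transiently transfected HepG2 cells after 24 h compound exposure. Measured by RT-PCR, 6-FAM primer extension, HpaI digest and capillary electrophoresis; gain-of-signal fit versus DMSO.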

[4] = biological target: Glucocorticoid receptor (Homo sapiens) (UniProt P04150); assay: ATG_GR_TRANS: Attagene TRANS-FACTORIAL HepG2 Assay for human Glucocorticoid Receptor (GR) (AID 2282978); settings: HepG2 Attagene TRANS GR reporter, mRNA transcription;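 also: activators score as hits since higher reporter transcript over DMSO is fitted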
[5] = biological target: human Phosphatase and Tensin Homolog (PTEN), PTEN (gene 5728) (UniProt P60484); assay: NVS_ENZ_hPTEN: NovaScreen (NVS) Enzymatic Assay for human Phosphatase and Tensin Homolog (PTEN) (AID 2283203)
Outline: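 Loss of fluorescent product signal after mobility-shift separation reports PTEN activity, recombinant human enzyme, 1 h after compound addition. Single 25 uM duplicate screen, then concentration-response on actives; DMSO baseline.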

[6] = biological target: Hepatocyte nuclear factor 4-alpha (Homo sapiens) (UniProt P41235); assay: ATG_HNF4a_TRANS: Attagene TRANS-FACTORIAL HepG2 Assay for human Hepatocyte Nuclear Factor 4 alpha (HNF4a) (AID 2282982); settings: HepG2 HNF4a transactivation reporter, mRNA readout
Outline: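 Transient MRTU transfection of HepG2, 24 h dosing. Readout: reporter mRNA via RT-PCR + capillary electrophoresis, fluorescence; activity fit upward relative to DMSO control.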

[7] = biological target: human Peroxisome Proliferator-activated Receptor alpha (PPARa), PPARA (gene 5465) (UniProt Q07869); assay: ATG_PPARa_TRANS: Attagene TRANS-FACTORIAL HepG2 Assay for human Peroxisome Proliferator-activated Receptor alpha (PPARa) (AID 2283001);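 also: potency for gain of reporter signal over DMSO so agonist or activator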
Outline: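 Transient HepG2 transfection, GAL4-UAS reporters, NR-Gal4 chimeras; 24 h compound exposure. Readout: reporter transcripts by RT-PCR, 6-FAM primer extension, HpaI digest, capillary electrophoresis. Positive direction vs DMSO baseline.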

[8] = biological target: human Peroxisome Proliferator-activated Receptor delta (PPARd), PPARD (gene 5467) (UniProt Q03181); assay: ATG_PPARd_TRANS: Attagene TRANS-FACTORIAL HepG2 Assay for human Peroxisome Proliferator-activated Receptor delta (PPARd) (AID 2283002)
Outline: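 Fluorescence from capillary electrophoresis of labelled RT-PCR reporter fragments gives the signal; DMSO sets baseline. Cells: HepG2 transiently carrying GAL4-UAS reporter units plus chimeric nuclear receptor-Gal4 proteins, exposed to chemicals for 24 h.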

[9] = biological target: Nuclear receptor subfamily 1 group I member 2 (Homo sapiens) (UniProt O75469); assay: ATG_PXR_TRANS: Attagene TRANS-FACTORIAL HepG2 Assay for human Pregnane X Receptor (PXR) (AID 2283008)
Outline: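 Trans-factorial format: exogenous NR-Gal4 fusion activity, not endogenous factor, in transfected human HepG2 liver cells. After 24 h dosing, RNA isolated, reverse-transcribed, amplified and resolved by capillary electrophoresis; induction scored versus DMSO.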

[10] = biological target: human Retinoic Acid Receptor gamma (RARg), RARG (gene 5916) (UniProt P13631); assay: ATG_RARg_TRANS: Attagene TRANS-FACTORIAL HepG2 Assay for human Retinoic Acid Receptor gamma (RARg) (AID 2283009);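 also: AC50 is for reporter induction above DMSO meaning RARg activation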
Outline: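 Readout: reporter transcript levels via RT-PCR, 6-FAM primer-extension labelling, HpaI digestion and capillary electrophoresis. Cells: HepG2 carrying transfected RARg-GAL4 chimera plus UAS reporter set. Dosing 24 h; DMSO negative control.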

[11] = biological target: human RAR-related Orphan Receptor beta (RORb), RORB (gene 6096) (UniProt Q92753); assay: ATG_RORb_TRANS: Attagene TRANS-FACTORIAL HepG2 Assay for human RAR-related Orphan Receptor beta (RORb) (AID 2283010);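 also: potency for increased reporter mRNA meaning activation of RORb-Gal4 chimera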
Outline: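 HepG2, transient MRTU transfection (GAL4-UAS reporters, exogenous NR-Gal4 chimeras); 24 h compound exposure; total RNA → RT-PCR → 6-FAM primer extension → HpaI digest → CE fluorescence. Positive direction vs DMSO baseline.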

[12] = biological target: human RAR-related Orphan Receptor gamma (RORg), RORC (gene 6097) (UniProt P51449); assay: ATG_RORg_TRANS: Attagene TRANS-FACTORIAL HepG2 Assay for human RAR-related Orphan Receptor gamma (RORg) (AID 2283011);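 also: potency for induction of reporter transcripts above DMSO so activators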
Outline: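 HepG2 cells transiently transfected with GAL4-UAS reporter units and chimeric RORg-Gal4 construct; after 24 h chemical exposure, reporter mRNA measured by RT-PCR with fluorescent capillary electrophoresis, gain of signal fitted against DMSO.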

[13] = biological target: human Thyroid Receptor alpha (THRa1), THRA (gene 7067) (UniProt P10827); assay: ATG_THRa1_TRANS: Attagene TRANS-FACTORIAL HepG2 Assay for human Thyroid Receptor alpha (THRa1) (AID 2283014)
Outline: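 HepG2 cells transiently transfected with chimeric NR-Gal4 and GAL4-UAS reporter units, dosed 24 h. Reporter mRNA quantified by RT-PCR, fluorescent labeling, HpaI digestion and capillary electrophoresis; gain-of-signal fit versus DMSO.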

[14] = biological target: rat Thyrotropin Releasing Hormone Receptor (TRH), Trhr (gene 25570) (UniProt Q01717); assay: NVS_GPCR_rTRH: NovaScreen (NVS) G Protein-Coupled Receptor Assay for rat Thyrotropin Releasing Hormone Receptor (TRH) (AID 2283329);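 also: hit means lower bound tracer signal versus DMSO baseline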
Outline: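 Rat forebrain membrane prep, radioligand displacement, filter scintillation readout at 4 h. Single conc 25 uM, duplicate; actives retested as concentration series. DMSO = negative control/baseline.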

[15] = biological target: Estrogen receptor (Homo sapiens) + Estrogen receptor beta (Homo sapiens) (UniProt P03372+Q92731); assay: OT_ER_ERaERb_0480: Odyssey Thera (OT) 8-hour HEK293T Protein-Complementation Assay for Estrogen Receptor-alpha/-beta Heterodimer (AID 2283352)
Outline: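 HEK293T protein-fragment complementation assay of ER-alpha/ER-beta LBD heterodimerisation, read 8 h after dosing. Mean nuclear/cytoplasmic fluorescence intensity measured by laser scanning cytometry; gain of signal fitted relative to DMSO.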

[16] = biological target: Retinoic acid receptor RXR-alpha (Homo sapiens) (UniProt P19793); assay: OT_NURR1_NURR1RXRa_1440: Odyssey Thera (OT) 24-hour HEK293T Protein Complementation Assay for Nurr1/retinoid X receptor (RXR) (AID 2283386)
Outline: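 Fluorescence PCA read-out; HEK293T; 24 h post-dose; bait/prey fused to reporter fragments; gain-of-signal fit vs DMSO negative control.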

[17] = CCTE_Deisenroth_AIME_384WELL_CTox_Active: Cytotoxicity Assessment (CTOX) in CCTE's 384-well Estrogen Receptor Transactivation Assay with AIME metabolic competence (metabolism positive), Deisenroth Lab (AID 2284037);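 also: chemicals first conditioned 2 h by alginate-bound induced rat liver S9 before cells; activity means signal loss indicating cell death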
Outline: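 Chemicals pre-incubated 2 hours with alginate-immobilised phenobarbital/beta-naphthoflavone-induced male Sprague Dawley rat liver S9, then conditioned medium applied 24 hour to VM7Luc4E2 cells. Viability by fluorogenic protease substrate; 10-point series 0.002 - 200 uM.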

[18] = CCTE_Deisenroth_AIME_384WELL_CTox_Inactive: Cytotoxicity Assessment (CTOX) in CCTE's 384-well Estrogen Receptor Transactivation Assay without AIME metabolic competence (metabolism negative), Deisenroth Lab (AID 2284039);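 also: cell viability via live-cell protease substrate cleaved to fluorescent probe; cells exposed 24 h to medium preincubated 2 h with alginate-water beads without S9; loss of fluorescence signal means loss of viability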
Outline: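 Metabolism-negative arm: chemicals (10-point, 0.002 - 200 uM) preincubated 2 h with alginate-water lids, medium moved onto VM7Luc4E2 cells for 24 h. Fluorescent live-cell protease readout; bidirectional curve fit.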

Measured: AC50

O=C(Cl)Oc1ccccc1
inconclusive: [1] 17.3 µM | [2] 1.12 µM | [3] 180 µM | [4] 0.27 µM | [5] 0.00229 µM

ClP(Cl)c1ccccc1
inconclusive: [2] 100 µM | [6] 24.9 µM | [7] 23.6 µM | [8] 100 µM | [9] 100 µM | [10] 5.25 µM | [11] 100 µM | [12] 100 µM | [13] 173 µM | [14] 25 µM | [15] 50 µM | [16] 50 µM | [17] 0.000126 µM | [18] 0.0576 nM
